Sequences of proteins named here, by UniProt entry; tags and fusion partners are left off. A change or cut given only in a name is not applied to a line headed by its entry.
UniProt P23385: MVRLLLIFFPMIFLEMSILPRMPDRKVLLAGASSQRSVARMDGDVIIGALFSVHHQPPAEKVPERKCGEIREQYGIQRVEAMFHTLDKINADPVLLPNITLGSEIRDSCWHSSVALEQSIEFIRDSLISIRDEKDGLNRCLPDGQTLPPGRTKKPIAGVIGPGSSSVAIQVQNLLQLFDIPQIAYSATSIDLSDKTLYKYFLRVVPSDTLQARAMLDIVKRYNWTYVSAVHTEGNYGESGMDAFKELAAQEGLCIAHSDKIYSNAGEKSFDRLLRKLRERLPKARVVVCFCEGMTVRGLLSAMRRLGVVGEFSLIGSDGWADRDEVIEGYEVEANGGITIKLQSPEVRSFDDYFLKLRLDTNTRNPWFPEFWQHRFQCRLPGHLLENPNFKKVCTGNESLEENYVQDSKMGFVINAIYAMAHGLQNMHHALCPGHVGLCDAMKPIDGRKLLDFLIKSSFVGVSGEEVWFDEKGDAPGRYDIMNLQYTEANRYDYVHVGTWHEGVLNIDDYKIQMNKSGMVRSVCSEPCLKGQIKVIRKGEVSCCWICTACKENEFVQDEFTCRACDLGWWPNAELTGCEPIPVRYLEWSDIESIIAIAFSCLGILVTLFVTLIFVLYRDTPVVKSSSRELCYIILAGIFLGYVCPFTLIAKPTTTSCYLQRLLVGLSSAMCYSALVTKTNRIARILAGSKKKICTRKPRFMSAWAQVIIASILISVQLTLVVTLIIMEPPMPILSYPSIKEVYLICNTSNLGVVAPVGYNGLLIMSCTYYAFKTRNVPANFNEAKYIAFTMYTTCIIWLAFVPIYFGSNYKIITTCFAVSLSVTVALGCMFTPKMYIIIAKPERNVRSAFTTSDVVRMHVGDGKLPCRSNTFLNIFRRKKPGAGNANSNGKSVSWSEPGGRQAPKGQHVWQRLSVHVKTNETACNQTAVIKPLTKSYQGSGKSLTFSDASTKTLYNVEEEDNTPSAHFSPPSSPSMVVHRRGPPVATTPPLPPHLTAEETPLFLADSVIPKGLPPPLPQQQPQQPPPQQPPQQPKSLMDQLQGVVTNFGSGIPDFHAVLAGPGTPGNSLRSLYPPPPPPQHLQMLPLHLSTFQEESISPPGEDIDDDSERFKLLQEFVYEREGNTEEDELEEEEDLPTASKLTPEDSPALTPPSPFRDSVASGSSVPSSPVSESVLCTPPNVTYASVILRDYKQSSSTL
UniProt P31424, whole entry: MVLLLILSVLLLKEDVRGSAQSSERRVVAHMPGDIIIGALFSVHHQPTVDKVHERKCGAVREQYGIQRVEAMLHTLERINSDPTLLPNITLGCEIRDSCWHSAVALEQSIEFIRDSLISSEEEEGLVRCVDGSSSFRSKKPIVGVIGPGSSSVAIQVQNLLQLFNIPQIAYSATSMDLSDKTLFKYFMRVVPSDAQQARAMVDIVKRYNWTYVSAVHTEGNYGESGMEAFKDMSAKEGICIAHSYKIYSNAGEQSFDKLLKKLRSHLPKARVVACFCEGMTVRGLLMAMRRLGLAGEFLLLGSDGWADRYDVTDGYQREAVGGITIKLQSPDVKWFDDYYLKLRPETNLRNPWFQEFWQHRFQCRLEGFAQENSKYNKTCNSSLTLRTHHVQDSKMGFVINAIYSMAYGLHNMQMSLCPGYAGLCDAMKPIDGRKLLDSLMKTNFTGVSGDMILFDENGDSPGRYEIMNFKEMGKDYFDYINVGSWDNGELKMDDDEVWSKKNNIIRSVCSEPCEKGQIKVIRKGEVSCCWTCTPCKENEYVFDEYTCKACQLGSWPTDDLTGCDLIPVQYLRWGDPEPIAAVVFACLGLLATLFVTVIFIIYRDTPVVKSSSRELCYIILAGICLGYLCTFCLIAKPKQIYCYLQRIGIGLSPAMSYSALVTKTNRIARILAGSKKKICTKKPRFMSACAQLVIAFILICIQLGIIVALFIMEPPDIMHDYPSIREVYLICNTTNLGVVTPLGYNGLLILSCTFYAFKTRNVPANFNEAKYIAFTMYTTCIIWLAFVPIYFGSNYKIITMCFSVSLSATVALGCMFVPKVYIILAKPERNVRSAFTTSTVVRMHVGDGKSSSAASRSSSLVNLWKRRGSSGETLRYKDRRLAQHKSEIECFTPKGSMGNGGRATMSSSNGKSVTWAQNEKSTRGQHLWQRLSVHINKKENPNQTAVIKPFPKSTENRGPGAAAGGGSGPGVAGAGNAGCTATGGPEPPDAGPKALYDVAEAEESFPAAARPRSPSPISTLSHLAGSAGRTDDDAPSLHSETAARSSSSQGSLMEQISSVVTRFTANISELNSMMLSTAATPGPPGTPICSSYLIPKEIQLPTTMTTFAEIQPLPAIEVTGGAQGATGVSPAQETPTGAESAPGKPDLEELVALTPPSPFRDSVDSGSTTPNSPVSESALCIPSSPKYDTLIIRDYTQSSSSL

In the first experiment the target is Metabotropic glutamate receptor 1 (Rattus norvegicus, UniProt P23385). The experiment in a line: Negative allosteric modulation of rat mGluR1 expressed in HEK293 cells assessed as inhibition of glutamate induced calcium mobilization by calcium mobilization assay. The experiment is classed as functional, cell-based.
Settings: not given
As to `C[C@@H](Nc1ncnc2c1nn1ccccc21)C1CCCCC1`, the IC50 came to 462 nM.

For the molecule `C[C@@H](Nc1ncnc2c1nn1ccccc21)C(C)(C)C`, the IC50 came to 883 nM.

As to `CC1(C)[C@@H]2CC[C@]1(C)[C@@H](Nc1ncnc3c1nn1ccccc31)C2`, the IC50 was determined as 1610 nM.

`Cc1nc(N[C@H]2C[C@H]3CC[C@@]2(C)C3(C)C)c2nn3ccccc3c2n1`: the IC50 turned out to be 1610 nM.

In the case of `Cc1nc(N[C@H]2CC[C@H](C)CC2)c2nn3ccccc3c2n1`, the IC50 was 1800 nM.

With `c1ccn2nc3c(NC4CCCCC4)ncnc3c2c1`, the IC50 was 2720 nM.

The target in a further experiment is Metabotropic glutamate receptor 5 (Rattus norvegicus, UniProt P31424). The experiment in a line: Negative allosteric modulation of rat mGluR5 expressed in HEK293 cells assessed as inhibition of glutamate induced calcium mobilization by calcium mobilization assay. Format: functional, cell-based. To be noted: read-out: IC50. (In general: A change in cytosolic calcium serves as a functional read-out for many receptors and channels.)
In the case of `Cc1nc(N[C@@H]2C[C@@H]3C[C@H]([C@H]2C)C3(C)C)c2nn3ccccc3c2n1`, the IC50 was more than 30000 nM.

Take `c1ccc2c(c1)CC(Nc1ncnc3c1nn1ccccc31)C2`: the IC50 stood at 2700 nM.

The same experiment, now with this note: read-out: pIC50 (converted).
Regarding `Cc1nc(N[C@@H]2C[C@@H]3C[C@H]([C@H]2C)C3(C)C)c2nn3ccccc3c2n1`, the IC50 is more than 31600 nM.
